According to BigSolDB 2.1:

## COC(=O)c1ccc(C(=O)OC)cc1
In 2-butanone, 283.15 K
  solubility (mole fraction): 0.0102
In 2-butanone, 288.07 K
  solubility (mole fraction): 0.0126
In 2-butanone, 292.91 K
  solubility (mole fraction): 0.0154
In 2-butanone, 298.15 K
  solubility (mole fraction): 0.0189
In 2-butanone, 303.15 K
  solubility (mole fraction): 0.0229
In 2-butanone, 308.08 K
  solubility (mole fraction): 0.0275
In 2-butanone, 313.11 K
  solubility (mole fraction): 0.033
In 2-butanone, 318.31 K
  solubility (mole fraction): 0.0402
In 2-butanone, 323.14 K
  solubility (mole fraction): 0.0475
In acetone, 283.2 K
  solubility (mole fraction): 0.0085
In acetone, 288.19 K
  solubility (mole fraction): 0.0105
In acetone, 293.15 K
  solubility (mole fraction): 0.0128
In acetone, 298.15 K
  solubility (mole fraction): 0.0157
In acetone, 303.17 K
  solubility (mole fraction): 0.0191
In acetone, 308.12 K
  solubility (mole fraction): 0.0232
In acetone, 313.14 K
  solubility (mole fraction): 0.0278
In acetone, 318.1 K
  solubility (mole fraction): 0.0336
In acetone, 323.23 K
  solubility (mole fraction): 0.04
In acetonitrile, 283.18 K
  solubility (mole fraction): 0.00453
In acetonitrile, 288.2 K
  solubility (mole fraction): 0.00574
In acetonitrile, 293.25 K
  solubility (mole fraction): 0.00723
In acetonitrile, 298.33 K
  solubility (mole fraction): 0.00907
In acetonitrile, 304.51 K
  solubility (mole fraction): 0.0119
In acetonitrile, 308.17 K
  solubility (mole fraction): 0.0139
In acetonitrile, 313.14 K
  solubility (mole fraction): 0.0171
In acetonitrile, 318.15 K
  solubility (mole fraction): 0.021
In acetonitrile, 323.23 K
  solubility (mole fraction): 0.0258
In chloroform, 283.04 K
  solubility (mole fraction): 0.0676
In chloroform, 288.15 K
  solubility (mole fraction): 0.0742
In chloroform, 293.27 K
  solubility (mole fraction): 0.0814
In chloroform, 298.24 K
  solubility (mole fraction): 0.0889
In chloroform, 303.15 K
  solubility (mole fraction): 0.0969
In chloroform, 308.08 K
  solubility (mole fraction): 0.106
In chloroform, 313.04 K
  solubility (mole fraction): 0.115
In chloroform, 318.03 K
  solubility (mole fraction): 0.125
In chloroform, 323.07 K
  solubility (mole fraction): 0.136
In cyclohexanone, 283.2 K
  solubility (mole fraction): 0.0117
In cyclohexanone, 288.21 K
  solubility (mole fraction): 0.0148
In cyclohexanone, 293.16 K
  solubility (mole fraction): 0.0181
In cyclohexanone, 298.18 K
  solubility (mole fraction): 0.0223
In cyclohexanone, 303.14 K
  solubility (mole fraction): 0.0272
In cyclohexanone, 308.17 K
  solubility (mole fraction): 0.0334
In cyclohexanone, 313.14 K
  solubility (mole fraction): 0.0406
In cyclohexanone, 318.1 K
  solubility (mole fraction): 0.049
In cyclohexanone, 323.23 K
  solubility (mole fraction): 0.0588
In ethanol, 283.36 K
  solubility (mole fraction): 0.000978
In ethanol, 287.94 K
  solubility (mole fraction): 0.00125
In ethanol, 293.3 K
  solubility (mole fraction): 0.00167
In ethanol, 298.14 K
  solubility (mole fraction): 0.00212
In ethanol, 303.07 K
  solubility (mole fraction): 0.00274
In ethanol, 308.2 K
  solubility (mole fraction): 0.00357
In ethanol, 313.13 K
  solubility (mole fraction): 0.00458
In ethanol, 318.13 K
  solubility (mole fraction): 0.0059
In ethanol, 323.22 K
  solubility (mole fraction): 0.0076
In ethyl acetate, 283.08 K
  solubility (mole fraction): 0.0116
In ethyl acetate, 288.12 K
  solubility (mole fraction): 0.0146
In ethyl acetate, 293.15 K
  solubility (mole fraction): 0.0177
In ethyl acetate, 298.09 K
  solubility (mole fraction): 0.0213
In ethyl acetate, 302.93 K
  solubility (mole fraction): 0.0254
In ethyl acetate, 307.92 K
  solubility (mole fraction): 0.0304
In ethyl acetate, 312.84 K
  solubility (mole fraction): 0.0358
In ethyl acetate, 317.77 K
  solubility (mole fraction): 0.0421
In ethyl acetate, 322.97 K
  solubility (mole fraction): 0.05
In isobutanol, 283.3 K
  solubility (mole fraction): 0.000907
In isobutanol, 288.25 K
  solubility (mole fraction): 0.00132
In isobutanol, 293.33 K
  solubility (mole fraction): 0.00186
In isobutanol, 298.28 K
  solubility (mole fraction): 0.00249
In isobutanol, 303.15 K
  solubility (mole fraction): 0.00331
In isobutanol, 307.9 K
  solubility (mole fraction): 0.00427
In isobutanol, 312.78 K
  solubility (mole fraction): 0.00567
In isobutanol, 317.7 K
  solubility (mole fraction): 0.00741
In isobutanol, 323.1 K
  solubility (mole fraction): 0.0103
In isopropanol, 283.32 K
  solubility (mole fraction): 0.00089
In isopropanol, 288.3 K
  solubility (mole fraction): 0.00122
In isopropanol, 293.19 K
  solubility (mole fraction): 0.00159
In isopropanol, 298.5 K
  solubility (mole fraction): 0.00217
In isopropanol, 303.25 K
  solubility (mole fraction): 0.00288
In isopropanol, 308.15 K
  solubility (mole fraction): 0.00387
In isopropanol, 312.97 K
  solubility (mole fraction): 0.00509
In isopropanol, 318.15 K
  solubility (mole fraction): 0.00675
In isopropanol, 323.17 K
  solubility (mole fraction): 0.00882
In isopropyl acetate, 283.22 K
  solubility (mole fraction): 0.0104
In isopropyl acetate, 288.14 K
  solubility (mole fraction): 0.0126
In isopropyl acetate, 293.15 K
  solubility (mole fraction): 0.0151
In isopropyl acetate, 298.14 K
  solubility (mole fraction): 0.0181
In isopropyl acetate, 303.16 K
  solubility (mole fraction): 0.0216
In isopropyl acetate, 308.07 K
  solubility (mole fraction): 0.0256
In isopropyl acetate, 313.03 K
  solubility (mole fraction): 0.0305
In isopropyl acetate, 318.14 K
  solubility (mole fraction): 0.0363
In isopropyl acetate, 323.34 K
  solubility (mole fraction): 0.0434
In methanol, 283.15 K
  solubility (mole fraction): 0.000783
In methanol, 288.1 K
  solubility (mole fraction): 0.001
In methanol, 293.11 K
  solubility (mole fraction): 0.00126
In methanol, 298.19 K
  solubility (mole fraction): 0.00165
In methanol, 303.15 K
  solubility (mole fraction): 0.00215
In methanol, 308.1 K
  solubility (mole fraction): 0.00272
In methanol, 313.03 K
  solubility (mole fraction): 0.0035
In methanol, 317.95 K
  solubility (mole fraction): 0.00445
In methanol, 323.01 K
  solubility (mole fraction): 0.0057
In methyl propionate, 283.13 K
  solubility (mole fraction): 0.0135
In methyl propionate, 288.24 K
  solubility (mole fraction): 0.0162
In methyl propionate, 293.2 K
  solubility (mole fraction): 0.0196
In methyl propionate, 298.19 K
  solubility (mole fraction): 0.0234
In methyl propionate, 303.24 K
  solubility (mole fraction): 0.028
In methyl propionate, 308.29 K
  solubility (mole fraction): 0.0336
In methyl propionate, 313.16 K
  solubility (mole fraction): 0.04
In methyl propionate, 318.17 K
  solubility (mole fraction): 0.0471
In methyl propionate, 323.12 K
  solubility (mole fraction): 0.0553
In n-butanol, 283.14 K
  solubility (mole fraction): 0.00113
In n-butanol, 288.33 K
  solubility (mole fraction): 0.00156
In n-butanol, 293.63 K
  solubility (mole fraction): 0.00209
In n-butanol, 298.57 K
  solubility (mole fraction): 0.00277
In n-butanol, 303.38 K
  solubility (mole fraction): 0.00364
In n-butanol, 308.15 K
  solubility (mole fraction): 0.00477
In n-butanol, 313.1 K
  solubility (mole fraction): 0.00625
In n-butanol, 318 K
  solubility (mole fraction): 0.00812
In n-butanol, 322.98 K
  solubility (mole fraction): 0.0106
In n-butyl acetate, 283.26 K
  solubility (mole fraction): 0.0114
In n-butyl acetate, 288.15 K
  solubility (mole fraction): 0.014
In n-butyl acetate, 293.1 K
  solubility (mole fraction): 0.0168
In n-butyl acetate, 298.13 K
  solubility (mole fraction): 0.0202
In n-butyl acetate, 303.08 K
  solubility (mole fraction): 0.0245
In n-butyl acetate, 308.1 K
  solubility (mole fraction): 0.0297
In n-butyl acetate, 313.05 K
  solubility (mole fraction): 0.0354
In n-butyl acetate, 317.99 K
  solubility (mole fraction): 0.0423
In n-butyl acetate, 323.03 K
  solubility (mole fraction): 0.0502
In n-pentyl acetate, 283.12 K
  solubility (mole fraction): 0.0111
In n-pentyl acetate, 288.16 K
  solubility (mole fraction): 0.0136
In n-pentyl acetate, 293.34 K
  solubility (mole fraction): 0.0166
In n-pentyl acetate, 298.34 K
  solubility (mole fraction): 0.0204
In n-pentyl acetate, 303.25 K
  solubility (mole fraction): 0.0245
In n-pentyl acetate, 308.07 K
  solubility (mole fraction): 0.0295
In n-pentyl acetate, 313.12 K
  solubility (mole fraction): 0.0352
In n-pentyl acetate, 318.04 K
  solubility (mole fraction): 0.0425
In n-pentyl acetate, 322.96 K
  solubility (mole fraction): 0.0508
In n-propanol, 283.14 K
  solubility (mole fraction): 0.000703
In n-propanol, 288.03 K
  solubility (mole fraction): 0.000924
In n-propanol, 293.35 K
  solubility (mole fraction): 0.0013
In n-propanol, 298.04 K
  solubility (mole fraction): 0.00174
In n-propanol, 302.97 K
  solubility (mole fraction): 0.00224
In n-propanol, 308 K
  solubility (mole fraction): 0.00295
In n-propanol, 312.95 K
  solubility (mole fraction): 0.00379
In n-propanol, 317.98 K
  solubility (mole fraction): 0.00492
In n-propanol, 323.08 K
  solubility (mole fraction): 0.00638
In n-propyl acetate, 283.02 K
  solubility (mole fraction): 0.0119
In n-propyl acetate, 288.22 K
  solubility (mole fraction): 0.0145
In n-propyl acetate, 293.25 K
  solubility (mole fraction): 0.0174
In n-propyl acetate, 298.28 K
  solubility (mole fraction): 0.0208
In n-propyl acetate, 303.15 K
  solubility (mole fraction): 0.0248
In n-propyl acetate, 308.1 K
  solubility (mole fraction): 0.0296
In n-propyl acetate, 313.24 K
  solubility (mole fraction): 0.0364
In n-propyl acetate, 318.05 K
  solubility (mole fraction): 0.0416
In n-propyl acetate, 323.15 K
  solubility (mole fraction): 0.0497
